“Also recorded” adds a separate entry of the source.
Key:
[1] = system: KLN205 cells (SHP2 G503V); test: pERK AlphaLISA in KLN205 cells; assay type: cell-based, mouse
Text: (§1) In this example, two mouse tumor cell lines, KLN205 (lung squamous cell carcinoma) and PAN02 (pancreatic cancer), were characterized.
(§2) See FIGS. 5A through 5D, which are graphs depicting the pERK AlphaLISA® assay.

PAN02 cells (SHP2 G503V) [2] = test: pERK AlphaLISA in PAN02 cells; assay type: cell-based, mouse
Text: as §1, §2

[3] = system: KLN205 cells (SHP2 G503V); test: CellTiter-Glo viability in KLN205 cells; assay type: cell-based, mouse
Text: as §1, §2

PAN02 cells (SHP2 G503V) [4] = test: CellTiter-Glo viability in PAN02 cells; assay type: cell-based, mouse
Text: as §1, §2

[5] = system: KLN205 tumors (SHP2 G503V); test: KLN205 syngeneic tumor model (Example 2); conditions: mouse
[6] = system: PAN02 tumors (SHP2 G503V); test: PAN02 syngeneic tumor model (Example 2); conditions: mouse

## COc1cc2nc(C)nc(N[C@H](C)c3cc(N)cc(C(F)(F)F)c3)c2cc1O[C@H]1CCOC1 [BI-3406]
[1]
  inhibition of pERK: potently inhibited
PAN02 cells (SHP2 G503V) [2]
  inhibition of pERK: potently inhibited
[3]
  inhibition of cell growth: potently inhibited
PAN02 cells (SHP2 G503V) [4]
  inhibition of cell growth: potently inhibited
[5]
  inhibition of tumor growth in vivo: near complete inhibition of tumor growth; also recorded: substantially higher levels of tumor growth inhibition
[6]
  inhibition of tumor growth in vivo: near complete inhibition of tumor growth

— US20250195521A1 (Revolution Medicines, Inc., priority 2020, published 2025)
